Tested on: guinea pigs
Assay: Active systemic anaphylaxis assay in guinea pigs
Conditions: 40 mg/kg i.m. / 80 mg/kg i.v., 9 animals

Positive control: Positive control group (human serum albumin) of the anaphylaxis assay
animals died after challenge: 5

From patent publication US20240325303A1, “KETOROLAC LIQUID COMPOSITION, PREPARATION METHOD THEREFOR, AND APPLICATION THEREOF” (SHANGHAI AURORA BIOTECHNOLOGY CO., LTD., priority 2021, published 2024)
